PubChem BioAssay AID504707 (The Scripps Research Institute Molecular Screening Center, 2011)
The entries are a selection whose mix differs from that of the whole data set. Active and inactive are the calls of the source.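 The calls were made as follows: active = percent activation above the mean of all tested compounds plus 3 SD (cut at about 19% in these data); inactive = the rest.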

biological target: cAMP-dependent protein kinase type I-alpha regulatory subunit (Bos taurus) + cAMP-dependent protein kinase catalytic subunit beta (Mus musculus) (UniProt P00514+P68181); assay: compounds dissociating PKAc from R1A subunit – biochemical, fluorescence polarization, Cy5-IP20, bovine R1A, mouse PKAc, primary screen (AID 504707); settings: PKA-R1A dissociation, at 11.4 µM, stronger effect = higher value, scaled: DMSO 0%, 113 µM cGMP 100%;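 also: higher means more PKAc released from R1A so a rise in polarization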

Which activation does the source give for Cc1ccc(C(=O)NCC2(N(C)C)CCCCC2)o1 here?
The activation was inactive: 5.05%.

CCCOc1ccc(C(=O)NCC2(N(C)C)CCCCC2)cc1OC was tested. Which activation did it give?
Its activation is inactive: -3.05%.

For CN1CCC(Nc2cccc(F)c2)CC1, which activation is on record?
Its activation is inactive: 3.59%.

With O=C(NCC1(N2CCCCC2)CCCCC1)c1cncc(Br)c1 as the compound, how does the activation read?
Its activation is inactive: -17.9%.

Which activation does the source give for COc1cc(OC)c(C(=O)NCC2(N(C)C)CCCCC2)cc1OC here?
Its activation is inactive: -13.7%.

Which activation does the source give for O=C(NCC1(N2CCOCC2)CCCCC1)c1cc(F)c(F)cc1Cl here?
The activation was inactive: -0.93%.

CC(C)c1ccc(NC2CCN(C(=O)OC(C)(C)C)CC2)cc1 was tested. Which activation did it give?
The activation was inactive: 6.8%.

With COc1ccc(CN(CCCl)CCCl)cc1Cl as the compound, how does the activation read?
The activation was inactive: -0.58%.

CN(C)c1cccc(C(=O)NCC2(N3CCCCC3)CCCCC2)c1 was tested. Which activation did it give?
Its activation is inactive: -6.47%.

O=C(NCC1(N2CCOCC2)CCCCC1)c1cc(=O)[nH]c2ccccc12 was tested. Which activation did it give?
The activation was inactive: -4.54%.

How did the activation turn out when COc1cc(C(=O)NCC2(N3CCCCC3)CCCCC2)ccc1OC(F)F was run?
The activation was inactive: -2.64%.

How did the activation turn out when COc1ccc(NC2CCN(C(=O)OC(C)(C)C)CC2)cc1 was run?
Its activation is inactive: -5.44%.

For CC(C)c1ccc(C(=O)NCC2(N3CCOCC3)CCCCC2)cc1, which activation is on record?
Its activation is inactive: -5.28%.

For CN1CCN(CCOC(=O)C(O)(c2ccccc2)c2ccccc2)CC1, which activation is on record?
Its activation is inactive: -0.63%.

For O=C(NCC1(N2CCCCC2)CCCCC1)c1cccc(C(F)(F)F)c1, which activation is on record?
The activation was inactive: 3.13%.

With CCN1CCC(Nc2ccc(Cl)cc2)CC1 as the compound, how does the activation read?
Its activation is inactive: 0.54%.

For N#CC1(Nc2ccccc2)CCN(CCc2ccccc2)CC1, which activation is on record?
The activation was inactive: -1.31%.

How did the activation turn out when CSc1ccc(C(=O)NCC2(N3CCOCC3)CCCCC2)cc1 was run?
Its activation is inactive: 3.97%.

For O=C(NCC1(N2CCCCC2)CCCCC1)c1cccc([N+](=O)[O-])c1, which activation is on record?
Its activation is inactive: -7.15%.

How did the activation turn out when O=C(NCC1(N2CCCCC2)CCCCC1)c1ccc(OC(F)F)cc1 was run?
Its activation is inactive: -4.7%.

For CCOC(=O)N1CCC(Nc2cccc(C)c2)CC1, which activation is on record?
The activation was inactive: 2.42%.

Which activation does the source give for COc1cc(C(=O)NCC2(N(C)C)CCCCC2)ccc1OC(F)F here?
Its activation is inactive: -6.96%.

Which activation does the source give for CCCCOc1ccc(C(=O)NCC2(N3CCOCC3)CCCCC2)cc1 here?
The activation was inactive: 6%.

With O=P1(N(CCCl)CCCl)SCCCS1 as the compound, how does the activation read?
Its activation is inactive: 10.1%.

O=C(NCC1(N2CCCCC2)CCCCC1)c1ccc(F)cc1 was tested. Which activation did it give?
The activation was inactive: 2.92%.

CCOC(=O)N1CCC(Nc2ccc(F)cc2)CC1 was tested. Which activation did it give?
The activation was inactive: 0.43%.

How did the activation turn out when COc1ccc(NC2CCN(CCc3ccccc3)CC2)c(OC)c1 was run?
The activation was inactive: -5.57%.

For O=C1CCN(Cc2ccccc2)CC1, which activation is on record?
Its activation is inactive: -2.17%.

Which activation does the source give for CCOc1ccc(C)cc1CN(CCCl)CCCl here?
The activation was inactive: 10.4%.

How did the activation turn out when N#CC1(Nc2ccccc2)CCN(Cc2ccccc2)CC1 was run?
The activation was inactive: -2.9%.

For O=C(NCC1(N2CCCCC2)CCCCC1)c1ccc(Cl)s1, which activation is on record?
The activation was inactive: 0.33%.

With O=C(OC1CN2CCC1CC2)C1c2ccccc2Oc2ccccc21 (stereo not given) as the compound, how does the activation read?
Its activation is inactive: -6.77%.

For COc1ccc(Cl)cc1C(=O)NCC1(N2CCOCC2)CCCCC1, which activation is on record?
Its activation is inactive: -8.48%.

How did the activation turn out when CCOC(=O)N1CCC(Nc2ccc(OC)cc2)CC1 was run?
Its activation is inactive: -2.99%.

With O=C(NCC1(N2CCCCC2)CCCCC1)c1ccc(Cl)nc1 as the compound, how does the activation read?
The activation was inactive: -1.87%.

For Cc1cc(C)cc(N(C(=O)c2ccccc2)C2CCN(C(=O)OC(C)(C)C)CC2)c1, which activation is on record?
Its activation is inactive: -15.4%.

Which activation does the source give for O=C(NCC1(N2CCOCC2)CCCCC1)c1cc2ccccc2o1 here?
Its activation is inactive: 2.85%.

Which activation does the source give for CSc1ccccc1C(=O)NCC1(N2CCCCC2)CCCCC1 here?
Its activation is inactive: -11.8%.

For Cc1cccc(NC2(C#N)CCN(Cc3ccccc3)CC2)c1, which activation is on record?
Its activation is inactive: 3.24%.

COc1ccc(C(=O)NCC2(N3CCCCC3)CCCCC2)cc1 was tested. Which activation did it give?
Its activation is inactive: 7.7%.

COc1ccc(C(=O)NCC2(N3CCCCC3)CCCCC2)c(OC)c1OC was tested. Which activation did it give?
Its activation is inactive: -13.8%.

With CC(C)(C)OC(=O)N1CCC(N(C(=O)c2ccccc2)c2ccc(F)cc2)CC1 as the compound, how does the activation read?
The activation was inactive: 2.11%.

O=C(NCC1(N2CCCCC2)CCCCC1)c1ccc(=O)[nH]c1 was tested. Which activation did it give?
Its activation is inactive: 6.27%.

O=C(NCC1(N2CCCCC2)CCCCC1)c1cccs1 was tested. Which activation did it give?
The activation was inactive: -11.3%.

With CN1CCC(Nc2ccc(Cl)cc2)CC1 as the compound, how does the activation read?
The activation was inactive: -14.9%.

COc1cccc(C(=O)N(c2cc(C)cc(C)c2)C2CCN(C(=O)OC(C)(C)C)CC2)c1 was tested. Which activation did it give?
Its activation is inactive: 0.57%.

COc1cc(OC)cc(C(=O)NCC2(N3CCOCC3)CCCCC2)c1 was tested. Which activation did it give?
The activation was inactive: -11.1%.

How did the activation turn out when CCC(CO)(C(=O)OC1CN2CCC1CC2)c1ccccc1 (stereo not given) was run?
The activation was inactive: -5.99%.

Which activation does the source give for CC(C)(C)OC(=O)N1CCC(Nc2ccccc2)CC1 here?
The activation was inactive: -2.2%.

Which activation does the source give for O=C(O)C1(Nc2ccccc2)CCN(Cc2ccccc2)CC1 here?
The activation was inactive: 1.88%.

CCCOc1ccc(C(=O)NCC2(N(C)C)CCCCC2)cc1 was tested. Which activation did it give?
The activation was inactive: -5.12%.

For CCOc1ncccc1C(=O)NCC1(N2CCOCC2)CCCCC1, which activation is on record?
The activation was inactive: 2.42%.

Which activation does the source give for CN1CCC(Nc2ccc(F)c(Cl)c2)CC1 here?
Its activation is inactive: 2.15%.

O=C(NCC1(N2CCCCC2)CCCCC1)c1ccco1 was tested. Which activation did it give?
The activation was inactive: -6.66%.

Which activation does the source give for CN(C)c1ccc(C(=O)NCC2(N3CCCCC3)CCCCC2)cc1 here?
The activation was inactive: -1.68%.

For Cn1c(=O)[nH]cc(N(CCCl)CCCl)c1=O, which activation is on record?
The activation was inactive: 1.99%.

Which activation does the source give for Cc1ccccc1NC1(C#N)CCN(Cc2ccccc2)CC1 here?
The activation was inactive: -8.61%.

With CCN1CCC(Nc2cccc(F)c2)CC1 as the compound, how does the activation read?
The activation was inactive: 12.5%.

Cc1ccc(C(=O)NCC2(N3CCCCC3)CCCCC2)o1 was tested. Which activation did it give?
The activation was inactive: 6.23%.

With Fc1ccccc1NC1CCN(Cc2ccccc2)CC1 as the compound, how does the activation read?
The activation was inactive: 5.7%.

How did the activation turn out when Cc1ccc(NC2(C#N)CCN(Cc3ccccc3)CC2)cc1 was run?
The activation was inactive: 1.36%.

For CC(=O)N(c1ccccc1)C1CCNCC1, which activation is on record?
Its activation is inactive: 3.23%.

Which activation does the source give for COc1cc(OC)cc(C(=O)NCC2(N3CCCCC3)CCCCC2)c1 here?
The activation was inactive: -1%.

For CN(C)C1(CNC(=O)c2cccc(C#N)c2)CCCCC1, which activation is on record?
The activation was inactive: -2.79%.

c1ccc(CN2CCC(Nc3ccccc3)CC2)cc1 was tested. Which activation did it give?
Its activation is inactive: -3.01%.

CCCN1CCC(Nc2cc(OC)cc(OC)c2)CC1 was tested. Which activation did it give?
Its activation is inactive: -2.26%.

How did the activation turn out when Cc1cc(N(CCCl)CCCl)ccc1C=O was run?
Its activation is inactive: -7.42%.

For N#Cc1ccc(C(=O)NCC2(N3CCCCC3)CCCCC2)cc1, which activation is on record?
Its activation is inactive: -2.08%.

How did the activation turn out when CC(C)(C)OC(=O)N1CCC(N(C(=O)c2ccccc2)c2ccc(Cl)cc2)CC1 was run?
The activation was inactive: -3.47%.

O=C(OC1CN2CCC1CC2)C1c2ccccc2C=Cc2ccccc21 (stereo not given) was tested. Which activation did it give?
The activation was inactive: 6.42%.

CCOC(=O)N1CCC(Nc2ccc(C)cc2)CC1 was tested. Which activation did it give?
Its activation is inactive: -5.42%.

With N/C(=N\O)c1c(N)no[n+]1[O-] as the compound, how does the activation read?
The activation was inactive: -4.46%.

COc1ccc(C(=O)NCC2(N3CCOCC3)CCCCC2)cc1OC was tested. Which activation did it give?
The activation was inactive: 1.13%.

How did the activation turn out when COc1cc(C(=O)NCC2(N3CCOCC3)CCCCC2)cc(OC)c1C was run?
The activation was inactive: -8.03%.

Which activation does the source give for O=C(NCC1(N2CCOCC2)CCCCC1)c1cc(Br)ccc1Cl here?
The activation was inactive: 0.62%.
